Results reported in patent US4479951A, “1.4;3.6-Dianhydrohexitol nitrates substituted by purine bases, processes for their preparation and pharmaceutical compositions” (Dr. Willmar Schwabe GmbH & Co., priority 1980, dated 1984).

What was measured:
[1] = system: isolated guinea pig hearts; experiment: coronary flowthrough-increasing effectiveness, isolated hearts according to Langendorff; conditions: 25 μg/ml
mongrel cats = experiment: heart-circulation effectiveness on narcotised mongrel cats, intraduodenal administration; conditions: 5 mg/kg intraduodenal

O=[N+]([O-])O[C@H]1CO[C@H]2[C@@H]1OC[C@H]2O[N+](=O)[O-]
Flowthrough, percentage change in comparison with the initial values [1]: +91.54% | Frequency, percentage change in comparison with the initial values [1]: +2.00% | Inotropism, percentage change in comparison with the initial values [1]: -8.11% | dp/dt (mongrel cats; 0 min): 8800 ± 831 mm sec | dp/dt (mongrel cats; 10 min): 8000 ± 1097 mm sec | dp/dt (mongrel cats; 30 min): 7667 ± 807 mm sec | dp/dt (mongrel cats; 60 min): 7633 ± 743 mm sec | dp/dt (mongrel cats; 120 min): 7050 ± 661 mm sec | heart frequency (mongrel cats; 120 min): 167.7 ± 9.4 min⁻¹ | blood pressure Δ (mongrel cats; printed on the 0 min line (= change 0 to 10 min)): -13.9 mm. Hg | blood pressure Δ (mongrel cats; printed on the 10 min line (= change 0 to 30 min)): -13.1 mm. Hg | blood pressure Δ (mongrel cats; printed on the 30 min line (= change 0 to 60 min)): -10.1 mm. Hg | blood pressure Δ (mongrel cats; printed on the 60 min line (= change 0 to 120 min)): -9.3 mm. Hg
